# Patent publication US20090209571A1, “Phenanthrene derivatives as MPGES-1 inhibitors” (priority 2006, published 2009)
# The chains behind the UniProt entries cited, without tags or fusion partners.
# UniProt O14684, whole entry: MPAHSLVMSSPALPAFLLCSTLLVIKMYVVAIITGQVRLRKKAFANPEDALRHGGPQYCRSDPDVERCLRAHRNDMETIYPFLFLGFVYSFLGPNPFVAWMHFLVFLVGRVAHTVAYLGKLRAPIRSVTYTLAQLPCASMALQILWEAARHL
# Biological target: human mPGES-1 (Homo sapiens, UniProt O14684)
# Test: Microsomal Prostaglandin E Synthase Assay
# Details: read-out: h-CHO (nM), potency expressed as IC50; microsomal fractions from CHO-K1 cells transiently transfected with human mPGES-1 cDNA; 1 μM PGH2; PGE2 by EIA; average of at least n=3
# Method: Compounds are tested as inhibitors of prostaglandin E synthase activity in microsomal prostaglandin e synthases, whole cell and in vivo assays. These assays measure prostaglandin E2 (PGE2) synthesis using either Enzymatic Immunoassay (EIA) or mass spectrometry. Cells used for microsomal preparation are CHO-K1 cells transiently transfected with plasmids encoding the human mPGES-1 cDNA. Cells used for cell-based experiments are human A549 (which express human mPGES-1). Guinea pigs are used to test the activity of selected compounds in vivo. In all these assays, 100% activity is defined as the PGE2 production in vehicle-treated samples. IC50 and ED50 represent the concentration or dose of inhibitor required to inhibit PGE2 synthesis by 50% as compared to the uninhibited control.
# Prostaglandin E synthase microsomal fractions are prepared from CHO-K1 cells transiently transfected with plasmid encoding the human mPGES-1 cDNA. Microsomes are then prepared and the PGES assay begins with the incubation of 5 μg/ml microsomal PGES-1 with compound or DMSO (final 1%) for 20-30 minutes at room temperature. The enzyme reactions are performed in 200 mM KPi pH 7.0, 2 mM EDTA and 2.5 mM GSH-reduced form. The enzymatic reaction is then initiated by the addition of 1 μM final PGH2 substrate prepared in isopropanol (3.5% final in assay well) and incubated at room temperature for 30 seconds. The reaction is terminated by the addition of SnCl2 in 1N HCl (1 mg/ml final). Measurement of PGE2 production in the enzyme reaction aliquots is done by EIA using a standard commercially available kit (Cat #: 901-001 from Assay Designs).
# The potency is expressed as IC50 and the value indicated is an average of at least n=3.
row,IC50,SMILES
1,2.1 nM,CC(=O)OC(C)(C)Cc1ccc2c(n1)c1cc(OCC3CC3)ccc1c1nc(-c3c(C#N)cccc3C#N)[nH]c21
2,20.7 nM,Fc1cccc(Cl)c1-c1nc2c3ccccc3c3ccsc3c2[nH]1
3,237 nM,Fc1cccc(Cl)c1-c1nc2c3ccccc3c3ncccc3c2[nH]1
